Results: patent US9067914B1, “Tropomyosin-related kinase (TRK) inhibitors” (Genzyme Corporation, priority 2013, dated 2015)
pIC50: −log10 of the molar value.

Protein sequences, listed by entry. Tags and fused reporters are not part of them. Residues count along the entry.
UniProt Q16620, 32-822: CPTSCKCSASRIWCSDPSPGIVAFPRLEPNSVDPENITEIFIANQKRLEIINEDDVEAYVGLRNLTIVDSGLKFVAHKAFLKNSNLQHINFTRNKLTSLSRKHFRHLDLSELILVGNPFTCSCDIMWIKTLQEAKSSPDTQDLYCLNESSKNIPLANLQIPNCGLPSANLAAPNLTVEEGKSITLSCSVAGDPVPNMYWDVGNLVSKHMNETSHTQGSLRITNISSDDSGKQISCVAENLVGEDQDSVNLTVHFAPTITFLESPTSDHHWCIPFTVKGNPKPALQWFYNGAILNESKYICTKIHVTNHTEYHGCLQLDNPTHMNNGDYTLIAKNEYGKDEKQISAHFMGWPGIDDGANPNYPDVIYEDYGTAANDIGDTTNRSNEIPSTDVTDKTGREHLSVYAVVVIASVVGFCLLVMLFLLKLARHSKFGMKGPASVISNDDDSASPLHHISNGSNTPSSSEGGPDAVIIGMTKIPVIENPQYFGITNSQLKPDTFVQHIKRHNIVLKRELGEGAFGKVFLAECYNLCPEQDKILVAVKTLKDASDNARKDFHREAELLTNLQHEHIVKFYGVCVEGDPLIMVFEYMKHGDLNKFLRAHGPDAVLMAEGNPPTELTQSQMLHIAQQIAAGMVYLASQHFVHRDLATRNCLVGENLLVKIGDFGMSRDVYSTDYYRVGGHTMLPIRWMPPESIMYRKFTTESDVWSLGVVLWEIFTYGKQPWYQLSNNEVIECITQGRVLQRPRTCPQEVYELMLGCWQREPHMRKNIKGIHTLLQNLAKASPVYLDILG

Biological target: TrkB (Homo sapiens (Human), UniProt Q16620)
Assay: TrkB activity, off-chip mobility shift assay (LabChip 3000)
Type: biochemical
Excerpt: Reagents and consumables were purchased from Sigma Aldrich, Carna Biosciences, or Caliper Life Sciences. All assay reaction conditions for IC50 determinations were within the linear range with respect to time and enzyme concentration. […] The LabChip 3000 separates and measures the fluorescent signal of fluorescein labeled peptide substrate and fluorescein labeled peptide product present in each well. Results are expressed as percent conversion by measuring peak height for both the substrate and product and dividing the product peak height by the sum of peak heights for both substrate and product.

| Compound | pIC50 |
| --- | --- |
| COc1cc([C@H](C)n2c(N)nc3cc(-c4cnn(C)c4)cnc32)ccc1OCc1ccc(C(F)(F)F)cc1 (single isomer, unassigned) [Ex. 3-49-6a, 3-(1-(3-methoxy-4-((4-(trifluoromethyl)benzyl)oxy)phenyl)ethyl)-6-(1-methyl-1H-pyrazol-4-yl)-3H-imidazo[4,5-b]pyridin-2-amine] | 9.22 |
| COc1cc([C@@H](C)n2c(N)nc3cc(-c4cnn(C)c4)cnc32)ccc1OCc1ccc(C(F)(F)F)cc1 (single isomer, unassigned) [Ex. 3-49-6b, 3-(1-(3-methoxy-4-((4-(trifluoromethyl)benzyl)oxy)phenyl)ethyl)-6-(1-methyl-1H-pyrazol-4-yl)-3H-imidazo[4,5-b]pyridin-2-amine] | 8.52 |
